Settings: molar ratio 1:1, 0.003 mol each; 50° C. for 1 day, then cooled to room temperature

| Substance | Solubility (miscibility) in 1-hexane | Solubility (miscibility) in Water | Solubility (miscibility) in cyclohexane | Solubility (miscibility) in toluene | Solubility (miscibility) in 2-methyl butane | Solubility (miscibility) in Hexane | Solubility (miscibility) in Methyl cyclo hexane | Solubility (miscibility) in heptane | Solubility (miscibility) in pentane |
| --- | --- | --- | --- | --- | --- | --- | --- | --- | --- |
| tributylpropyl ammonium undecylenate [Example 6] | Y | Y | Y | Y | – | – | – | – | – |
| Dimethyl Butyl Hexyl Ammonium Undecylenate [Example 1] | Y | Y | Y | Y | Y | Y | Y | Y | Y |
| triethyloctyl ammonium undecylenate [Example 2] | Y | Y | Y | Y | Y | – | Y | – | Y |
| tripropyloctyl ammonium undecylenate [Example 5] | Y | Y | Y | Y | Y | Y | Y | Y | Y |
| tributylhexyl ammonium undecylenate [Example 7] | Y | Y | Y | Y | Y | Y | Y | Y | Y |
| tripropylbutyl ammonium undecylenate [Example 3] | – | Y | Y | Y | – | – | – | N | – |
| hexyltributyl ammonium oleate [Example 9] | – | Y | – | Y | – | – | – | – | – |
| tripropylhexyl ammonium undecylenate [Example 4] | Y | Y | Y | Y | Y | Y | Y | Y | Y |
| tributyloctyl ammonium undecylenate [Example 8] | Y | Y | Y | Y | Y | Y | Y | Y | Y |
